Values of other authors in patent US20250235394A1, “BIOFILM-TARGETING NANOPARTICLES TO INCREASE THE […] OF FLUORIDE” (The Regents of The University of Michigan, priority 2021, published 2025).

Substance: stannous fluoride
- solubility in water (dissolves up to a concentration of): 42,000 ppm F
